Measurements from PubChem BioAssay AID624417 (National Center for Advancing Translational Sciences (NCATS), 2012).
Only a part is listed here, and it is no random draw. Records with an inconclusive call do not appear. A call without a number means that no potency is given here. The source made the active and inactive calls. Calls follow the shape of the dose curve; as a rule, active = well fitted inhibition curve with a large enough effect; inconclusive = small, poorly fitted or top-dose-only effect; inactive = no such curve, though single readings can be large or run the other way.

Sequences of proteins named here, by UniProt entry; tags and fusion partners are left off.
UniProt P43220, whole entry, looked up: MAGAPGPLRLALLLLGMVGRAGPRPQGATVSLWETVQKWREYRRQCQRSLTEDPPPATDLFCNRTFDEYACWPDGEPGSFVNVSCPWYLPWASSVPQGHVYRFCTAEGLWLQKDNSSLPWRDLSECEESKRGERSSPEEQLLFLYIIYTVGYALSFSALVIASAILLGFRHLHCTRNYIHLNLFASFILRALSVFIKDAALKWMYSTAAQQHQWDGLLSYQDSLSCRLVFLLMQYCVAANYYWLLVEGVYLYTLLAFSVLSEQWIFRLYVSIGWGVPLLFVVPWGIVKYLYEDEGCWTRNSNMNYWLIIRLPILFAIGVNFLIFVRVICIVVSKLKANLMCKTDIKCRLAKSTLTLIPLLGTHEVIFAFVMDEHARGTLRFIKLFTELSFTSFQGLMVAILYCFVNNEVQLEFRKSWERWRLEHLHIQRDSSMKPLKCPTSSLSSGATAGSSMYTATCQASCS

molecular target: Glucagon-like peptide 1 receptor (Homo sapiens) (UniProt P43220); experiment: qHTS of GLP-1 Receptor Inverse Agonists (Inhibition Mode); conditions: HEK293 GLP-1R CRE-luciferase, luminescence, 24 h, GLP-1R form is constitutively active; series mostly up to 38.3 µM; also: nearly all actives have a fitted effect of over 55% in size
Potency is read from the fitted curve at half-maximal effect.

Structure (SMILES)	Potency
CCOP(=O)(Nc1ccccc1)OCC	inactive
Cc1ccc(NP(=O)(Oc2ccccc2F)Oc2ccccc2F)nc1	inactive
CN(C(=O)Cc1ccc(Cl)c(Cl)c1)[C@H]1CCCC[C@@H]1N1CCCC1	inactive
CC(=O)Nc1ccc([As](=O)(O)O)cc1	inactive
O=C(O)c1ccccc1[As](=O)(O)O	inactive
CCCC1OP(N)(=O)OCC1CC (centres undefined)	inactive
Nc1cccc2ccc([As](=O)(O)O)cc12	inactive
CCN(N=Nc1nonc1N)c1nonc1N	inactive
Clc1ccc(Cl)c(NC2=NCC(CBr)S2)c1 (centres undefined)	inactive
COc1ccccc1OP(=O)(Nc1ccc(C)cn1)Oc1ccccc1OC	inactive
Cc1ccc(OP(=O)(Nc2nccs2)Oc2ccc(C)cc2)cc1	inactive
CN(C(=O)Cc1ccc(Cl)c(Cl)c1)[C@H]1CCCC[C@H]1N1CCCC1	inactive
Cc1ccc(N/C(=N/P(=O)(N2CCOCC2)N2CCOCC2)N2CCOCC2)cc1	inactive
NC(=O)c1cc([N+](=O)[O-])cc([N+](=O)[O-])c1N	inactive
O=[N+]([O-])C1C(O)C(O)C([N+](=O)[O-])C(O)C1O (centres undefined)	inactive
Oc1ccccc1CNc1ccccn1	inactive
O=C(NC(Sc1ccncn1)C(Cl)(Cl)Cl)c1ccccc1 (centres undefined)	inactive
Nc1cc(N)c2nonc2c1[N+](=O)[O-]	inactive
Cc1ccc(NP(=O)(Oc2ccccc2)Oc2ccccc2)nc1	inactive
O=[N+]([O-])c1cccc2n[nH]nc12	inactive
CC(=O)N1C2C3N(C(C)=O)C1C1N(C(C)=O)C(C(N1C(C)=O)N3C(C)=O)N2C(C)=O	inactive
COc1ccc(C2=NCC(CBr)S2)cc1 (centres undefined)	inactive

Structure (SMILES)	Potency
c1cc(-c2nn[nH]n2)ccc1-c1nn[nH]n1	inactive
CC(C)c1nc(Nc2ccccc2)n(P(=O)(N(C)C)N(C)C)n1	inactive
CC(C)=N/N=C(\N)N[N+](=O)[O-]	inactive
CN(C)C(=O)OCCc1n(C)cc[n+]1C	inactive
CCN(/C(=N/P(=O)(N1CCOCC1)N1CCOCC1)N1CCOCC1)c1ccc(OC)cc1	inactive
Nc1ccc([As](=O)(O)c2ccc(N)cc2)cc1	inactive
O=C(Nc1cc([As](=O)(O)O)ccc1O)c1ccccc1	inactive
O=P1(N(CCCl)CCCl)OCCCS1 (centres undefined)	inactive
O=C(O)CNc1ccc([As](=O)(O)O)cc1	inactive
COC(=O)C1(C)COP(=O)(Nc2ccccc2)OC1 (centres undefined)	inactive
O=[N+]([O-])c1cccc(NC2=NCC(CBr)S2)c1 (centres undefined)	inactive
O=[N+]([O-])c1ncn(CCn2ncnc2[N+](=O)[O-])n1	inactive
CC(C)(C)C(=O)NC(Sc1ccncn1)C(Cl)(Cl)Cl (centres undefined)	inactive
C[C@H]1OP(=O)(Oc2ccccc2)[C@H](O)[C@H](O)[C@H]1N=[N+]=[N-] (some centres undefined)	inactive
O=P(Nc1ccccn1)(c1ccc(Br)cc1)c1ccc(Br)cc1	active: 6.31 µM
CN(C)C1(CNC(=O)c2ccc(Cl)c(S(N)(=O)=O)c2)CCCCC1	inactive
COc1ccc(N)c([N+](=O)[O-])c1[N+](=O)[O-]	inactive
O=C(OC1CN2CCC1CC2)c1cccc(Cl)c1 (centres undefined)	inactive
C(Cc1nn[nH]n1)Cc1nn[nH]n1	inactive
Nc1ccc([As](=O)(O)c2ccc([N+](=O)[O-])cc2)cc1	inactive
O=[As](O)(c1ccccc1)c1ccc(O)cc1	inactive
O=[N+]([O-])c1ncn(CCn2cnc([N+](=O)[O-])n2)n1	inactive

Structure (SMILES)	Potency
c1nnnn1CCn1cnnn1	inactive
O=P(Nc1nccs1)(c1ccccc1)c1ccccc1	inactive
CCc1cc(O)c([N+](=O)[O-])c(C)c1[N+](=O)[O-]	inactive
O=P1(Nc2nc3ccc(Cl)cc3s2)COc2ccccc2O1 (centres undefined)	inactive
CCOc1ccc(C2=NCC(CBr)S2)cc1 (centres undefined)	inactive
CC(=O)Nc1ccc([As](=O)(O)O)c(O)c1	inactive
CC(=O)Nc1ccc(Oc2c([N+](=O)[O-])cc([N+](=O)[O-])cc2[N+](=O)[O-])cc1	inactive
C[C@H]1OP(=O)(Oc2ccccc2)C[C@@H]2O[C@@H]21 (some centres undefined)	inactive
C[C@@H]1C=CCP(=O)(Oc2ccccc2)O1 (some centres undefined)	inactive
CC(=O)c1ccc(N2CC2c2ccncc2)cc1 (centres undefined)	inactive
COC(=O)C1(C)COP(=O)(NCc2ccccc2)OC1 (centres undefined)	inactive
O=P1(N(CCCl)CCCl)OCCC2CCCCN21 (centres undefined)	inactive
c1ccc(-c2nn[nH]n2)c(-c2nn[nH]n2)c1	inactive
Cc1ccc(NP(=O)(Oc2cccc(C)c2)Oc2cccc(C)c2)nc1	inactive
CCNC(=S)/N=C(\N)N[N+](=O)[O-]	inactive
CN(C)C(=O)Oc1noc2ccccc12	inactive
O=C(OC1CN2CCC1CC2)c1ccccc1 (centres undefined)	inactive
CCC(=O)N1C2C3N(C(=O)CC)C1C1N(C(=O)CC)C(C(N1C(=O)CC)N3C(=O)CC)N2C(=O)CC	inactive
COC(=O)c1cc2c(s1)N=C(c1ccccc1)N(C)P2(=O)N1CCOCC1 (centres undefined)	inactive
CC(=O)NC(SC(=S)N(CC(C)C)CC(C)C)C(Cl)(Cl)Cl (centres undefined)	inactive
